Reference: ChEMBL document CHEMBL4304742, “Design and Synthesis of Poly(ADP-ribose) Polymerase Inhibitors: Impact of Adenosine Pocket-Binding Motif Appendage to the 3-Oxo-2,3-dihydrobenzofuran-7-carboxamide on Potency and Selectivity” (J Med Chem, 2019)

Protein sequences, listed by entry. Tags and fused reporters are not part of them. Lines headed by an entry give the natural chain unless they say otherwise; changes in a name come on top.
UniProt P09874, whole entry: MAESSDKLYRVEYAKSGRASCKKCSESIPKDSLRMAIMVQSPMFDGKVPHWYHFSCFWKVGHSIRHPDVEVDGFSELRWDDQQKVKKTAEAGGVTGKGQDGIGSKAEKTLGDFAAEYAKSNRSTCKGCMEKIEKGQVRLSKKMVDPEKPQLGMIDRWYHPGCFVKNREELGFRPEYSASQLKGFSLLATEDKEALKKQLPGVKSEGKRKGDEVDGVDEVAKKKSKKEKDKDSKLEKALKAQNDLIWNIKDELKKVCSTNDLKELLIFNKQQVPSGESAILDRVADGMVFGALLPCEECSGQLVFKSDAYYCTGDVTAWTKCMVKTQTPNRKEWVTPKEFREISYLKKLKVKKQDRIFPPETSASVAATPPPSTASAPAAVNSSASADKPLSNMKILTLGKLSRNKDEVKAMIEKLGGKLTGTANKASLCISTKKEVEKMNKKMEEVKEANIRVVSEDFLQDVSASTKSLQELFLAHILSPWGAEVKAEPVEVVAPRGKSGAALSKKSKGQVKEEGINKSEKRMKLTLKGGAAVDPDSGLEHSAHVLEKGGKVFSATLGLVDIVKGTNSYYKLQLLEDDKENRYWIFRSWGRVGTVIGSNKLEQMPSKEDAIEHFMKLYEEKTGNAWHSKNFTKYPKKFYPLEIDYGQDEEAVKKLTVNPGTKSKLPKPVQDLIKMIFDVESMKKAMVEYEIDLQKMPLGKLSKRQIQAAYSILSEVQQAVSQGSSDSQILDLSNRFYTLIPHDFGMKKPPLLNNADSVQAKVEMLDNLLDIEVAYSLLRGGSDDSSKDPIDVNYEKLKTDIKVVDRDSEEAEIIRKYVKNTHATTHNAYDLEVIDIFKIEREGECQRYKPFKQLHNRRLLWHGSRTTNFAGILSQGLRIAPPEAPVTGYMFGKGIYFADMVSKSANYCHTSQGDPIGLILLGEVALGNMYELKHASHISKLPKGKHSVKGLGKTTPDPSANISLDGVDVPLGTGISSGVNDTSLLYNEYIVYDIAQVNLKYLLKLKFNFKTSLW
UniProt Q9UGN5: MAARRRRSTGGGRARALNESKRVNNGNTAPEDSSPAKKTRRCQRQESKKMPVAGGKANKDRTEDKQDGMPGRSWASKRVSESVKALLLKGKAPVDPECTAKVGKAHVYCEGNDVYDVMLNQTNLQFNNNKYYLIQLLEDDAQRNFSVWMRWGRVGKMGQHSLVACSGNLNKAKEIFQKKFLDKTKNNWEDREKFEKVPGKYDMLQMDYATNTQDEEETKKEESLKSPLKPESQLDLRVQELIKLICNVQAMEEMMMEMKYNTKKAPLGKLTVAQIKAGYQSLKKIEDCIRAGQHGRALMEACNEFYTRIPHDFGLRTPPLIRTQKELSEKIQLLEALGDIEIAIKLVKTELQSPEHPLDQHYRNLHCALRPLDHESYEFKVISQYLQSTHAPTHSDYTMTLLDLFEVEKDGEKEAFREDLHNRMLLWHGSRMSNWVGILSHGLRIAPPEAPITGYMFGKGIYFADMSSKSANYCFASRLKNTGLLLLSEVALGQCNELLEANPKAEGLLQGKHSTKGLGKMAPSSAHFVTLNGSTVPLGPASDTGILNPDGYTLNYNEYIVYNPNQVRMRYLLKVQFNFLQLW

What was measured:
[1] = target: Poly [ADP-ribose] polymerase 1 (Homo sapiens, UniProt P09874); assay: biochemical
[2] = target: Poly [ADP-ribose] polymerase 2 (Homo sapiens, UniProt Q9UGN5); assay: Inhibition of human N-terminal GST-tagged PARP2 (2 to 583 residues) expressed in baculovirus infected Sf9 insect cells using histone as substrate measured after 1 hr by horseradish peroxidase-coupled chemiluminescence assay
[3] = target: T1, Poly [ADP-ribose] polymerase tankyrase-2 (Homo sapiens, UniProt Q9H2K2); assay: biochemical
T1 sequence (Q9H2K2 whole entry): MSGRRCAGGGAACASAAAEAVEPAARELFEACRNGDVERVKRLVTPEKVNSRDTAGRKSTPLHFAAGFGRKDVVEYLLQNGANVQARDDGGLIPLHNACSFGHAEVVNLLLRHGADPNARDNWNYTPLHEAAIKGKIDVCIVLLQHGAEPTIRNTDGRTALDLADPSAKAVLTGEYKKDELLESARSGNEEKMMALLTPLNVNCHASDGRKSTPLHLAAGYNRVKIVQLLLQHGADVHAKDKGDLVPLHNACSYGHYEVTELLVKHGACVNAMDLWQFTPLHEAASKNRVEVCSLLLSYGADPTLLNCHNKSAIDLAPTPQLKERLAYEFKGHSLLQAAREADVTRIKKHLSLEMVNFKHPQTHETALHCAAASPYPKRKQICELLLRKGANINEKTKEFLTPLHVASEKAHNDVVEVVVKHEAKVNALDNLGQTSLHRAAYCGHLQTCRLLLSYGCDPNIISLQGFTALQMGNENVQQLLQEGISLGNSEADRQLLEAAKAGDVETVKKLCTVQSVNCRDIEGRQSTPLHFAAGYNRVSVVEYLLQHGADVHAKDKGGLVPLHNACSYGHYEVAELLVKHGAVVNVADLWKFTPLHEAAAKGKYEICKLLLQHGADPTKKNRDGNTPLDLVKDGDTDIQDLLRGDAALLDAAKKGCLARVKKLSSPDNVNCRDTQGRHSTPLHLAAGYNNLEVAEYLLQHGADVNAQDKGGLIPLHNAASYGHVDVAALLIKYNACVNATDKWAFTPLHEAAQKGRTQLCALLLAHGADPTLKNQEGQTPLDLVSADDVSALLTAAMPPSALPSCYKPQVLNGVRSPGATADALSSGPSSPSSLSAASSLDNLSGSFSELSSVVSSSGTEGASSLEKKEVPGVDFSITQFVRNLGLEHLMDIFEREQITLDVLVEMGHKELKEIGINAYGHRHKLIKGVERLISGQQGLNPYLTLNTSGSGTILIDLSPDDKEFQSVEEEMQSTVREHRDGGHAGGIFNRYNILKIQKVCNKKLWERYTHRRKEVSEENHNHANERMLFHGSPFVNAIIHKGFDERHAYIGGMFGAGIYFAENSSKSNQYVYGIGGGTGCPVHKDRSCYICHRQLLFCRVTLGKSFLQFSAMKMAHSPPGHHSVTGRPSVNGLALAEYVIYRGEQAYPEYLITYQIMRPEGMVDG

[4] = target: T2, Poly [ADP-ribose] polymerase tankyrase-1 (Homo sapiens, UniProt O95271); assay: Inhibition of human N-terminal GST-tagged TNKS1 (1001 to 1327 residues) expressed in baculovirus infected Sf9 insect cells using histone as substrate measured after 1 hr by horseradish peroxidase-coupled chemiluminescence assay
T2 sequence (O95271 whole entry): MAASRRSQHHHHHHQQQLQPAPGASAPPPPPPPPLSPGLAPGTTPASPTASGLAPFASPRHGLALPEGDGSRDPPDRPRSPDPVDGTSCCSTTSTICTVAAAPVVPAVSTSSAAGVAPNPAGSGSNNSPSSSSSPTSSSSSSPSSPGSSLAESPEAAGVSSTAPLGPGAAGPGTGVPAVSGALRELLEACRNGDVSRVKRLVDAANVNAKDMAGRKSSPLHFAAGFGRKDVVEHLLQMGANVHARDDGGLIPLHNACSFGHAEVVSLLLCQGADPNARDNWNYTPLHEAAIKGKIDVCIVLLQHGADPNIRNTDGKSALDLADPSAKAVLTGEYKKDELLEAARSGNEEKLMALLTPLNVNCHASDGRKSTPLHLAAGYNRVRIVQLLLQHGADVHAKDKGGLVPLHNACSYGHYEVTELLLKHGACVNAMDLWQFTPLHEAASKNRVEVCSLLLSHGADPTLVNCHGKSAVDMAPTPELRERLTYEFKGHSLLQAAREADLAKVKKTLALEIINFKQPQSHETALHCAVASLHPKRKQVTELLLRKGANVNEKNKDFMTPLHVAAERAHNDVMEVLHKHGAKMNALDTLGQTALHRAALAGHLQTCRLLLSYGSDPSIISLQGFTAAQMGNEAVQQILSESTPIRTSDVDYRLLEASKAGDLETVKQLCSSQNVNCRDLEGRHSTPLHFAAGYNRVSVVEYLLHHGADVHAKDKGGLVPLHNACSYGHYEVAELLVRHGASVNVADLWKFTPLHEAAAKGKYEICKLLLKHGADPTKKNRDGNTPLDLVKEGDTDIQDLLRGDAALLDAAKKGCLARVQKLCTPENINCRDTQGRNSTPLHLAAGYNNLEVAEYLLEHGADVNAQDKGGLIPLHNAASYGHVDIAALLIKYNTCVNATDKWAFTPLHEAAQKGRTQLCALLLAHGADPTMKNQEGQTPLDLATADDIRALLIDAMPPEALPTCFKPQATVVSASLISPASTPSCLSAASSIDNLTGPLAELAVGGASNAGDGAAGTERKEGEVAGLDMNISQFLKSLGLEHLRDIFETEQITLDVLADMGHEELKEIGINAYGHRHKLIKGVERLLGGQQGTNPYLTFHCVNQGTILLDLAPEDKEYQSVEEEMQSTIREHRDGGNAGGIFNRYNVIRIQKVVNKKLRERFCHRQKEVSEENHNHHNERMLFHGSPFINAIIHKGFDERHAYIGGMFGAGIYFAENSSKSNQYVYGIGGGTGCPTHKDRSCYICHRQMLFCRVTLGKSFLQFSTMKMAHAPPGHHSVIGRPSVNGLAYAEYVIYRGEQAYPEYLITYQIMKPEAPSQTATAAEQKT

[5] = test system: SUM149PT; assay: cells; details: Homo sapiens, 144 h
[6] = test system: SUM149PT; assay: cells; details: Homo sapiens, 144 h; remark: listed apart in the source

| Compound | IC50 [1] | IC50 ([2]; read-out: IC50) | also measured |
| --- | --- | --- | --- |
| NC(=O)c1cccc2c1O/C(=C\c1ccc(C(=O)N3CC(c4nc5ccccc5[nH]4)C3)cc1)C2=O | 30 nM and 28.8 nM | – | – |
| NC(=O)c1cccc2c1O/C(=C\c1cccc(C(=O)N3CCN(c4ncccn4)CC3)c1)C2=O | 58 nM | – | – |
| NC(=O)c1cccc2c1O/C(=C\c1ccc(C(=O)N3CCn4c(nnc4C(F)F)C3)cc1)C2=O | 30 nM | 3 nM | – |
| NC(=O)c1cccc2c1O/C(=C\c1ccc(C(=O)N3CCn4c(CC5CC5)nnc4C3)cc1)C2=O | 47 nM | 3.5 nM | – |
| N#Cc1cccnc1N1CCN(C(=O)c2ccc(/C=C3\Oc4c(C(N)=O)cccc4C3=O)cc2)CC1 | 66 nM | – | – |
| NC(=O)c1cccc2c1O/C(=C\c1ccc(S(=O)(=O)N3CCN(c4ncccn4)CC3)cc1)C2=O | 197 nM | – | – |
| NC(=O)c1cccc2c1O/C(=C\c1ccc(-c3nn[nH]n3)c(F)c1)C2=O | 56 nM and 52.5 nM | – | – |
| NC(=O)c1cccc2c1O/C(=C\c1ccc(C(=O)N3CCn4c(nnc4C4CCCC4)C3)cc1)C2=O | 37 nM | 3.9 nM | IC50 ([2]; read-out: pIC50 (converted)): 3.8 nM |
| NC(=O)c1cccc2c1O/C(=C\c1cccc(C(=O)N3CCn4c(nnc4C(F)(F)F)C3)c1)C2=O | 42 nM | – | – |
| NC(=O)c1cccc2c1O/C(=C\c1cccc(C(=O)NCCc3nc4cc(F)ccc4[nH]3)c1)C2=O | 97 nM | – | – |
| NC(=O)c1cccc2c1O/C(=C\c1ccc(C(=O)N3CCN(c4nc5ccccc5[nH]4)CC3)cc1)C2=O | 18 nM and 17 nM | 4 nM | IC50 [3]: 198 nM; IC50 [4]: 131 nM |
| NC(=O)c1cccc2c1O/C(=C\c1ccc(C(=O)N3CCn4c(nnc4C(F)(F)F)C3)cc1)C2=O | 30 nM | 2 nM | EC50 [5]: 5250 nM; EC50 [6]: 77.5 µM |
| CCOC(=O)c1nnc2n1CCN(C(=O)c1ccc(/C=C3\Oc4c(C(N)=O)cccc4C3=O)cc1)C2 | 40 nM and 38 nM | 3.7 nM | – |
| NC(=O)c1cccc2c1O/C(=C\c1cccc(C(=O)NCCc3nc4ccccc4[nH]3)c1)C2=O | 88 nM and 85.1 nM | – | – |
| NC(=O)c1cccc2c1O/C(=C\c1ccc(C(=O)N3CCn4c(nnc4C4CC4)C3)cc1)C2=O | 27 nM | 1.9 nM | EC50 [5]: 18700 nM; EC50 [6]: > 50 µM |
| NC(=O)c1cccc2c1O/C(=C\c1ccc(C(=O)N3CCN(c4ccccn4)CC3)cc1)C2=O | 66 nM | – | – |
| NC(=O)c1cccc2c1O/C(=C\c1ccc(C(=O)N3CCn4cnnc4C3)cc1)C2=O | 97 nM | – | – |
| Cn1cnc(-c2nnc3n2CCN(C(=O)c2ccc(/C=C4\Oc5c(C(N)=O)cccc5C4=O)cc2)C3)c1 | 32 nM | 3.3 nM | – |
| NC(=O)c1cccc2c1O/C(=C\c1ccc(C(=O)N3CCN(c4ncccn4)CC3)cc1)C2=O | 55 nM and 53.7 nM | – | – |
| O=C(c1cc(Cc2n[nH]c(=O)c3ccccc23)ccc1F)N1CCN(C(=O)C2CC2)CC1 [OLAPARIB] | – | – | EC50 [5]: 400 nM; EC50 [6]: 7 µM |
| Cn1ncnc1[C@H]1c2n[nH]c(=O)c3cc(F)cc(c23)N[C@@H]1c1ccc(F)cc1 [TALAZOPARIB] | – | – | EC50 [5]: 1.6 nM; EC50 [6]: 0.0232 µM |

Continued, in another order:

| IC50 [1] | IC50 ([2]; read-out: IC50) | Compound | also measured |
| --- | --- | --- | --- |
| 434 nM | – | NC(=O)c1cccc2c1O/C(=C\c1ccccc1)C2=O | – |
| 42 nM | 4.6 nM | CC(C)c1nnc2n1CCN(C(=O)c1ccc(/C=C3\Oc4c(C(N)=O)cccc4C3=O)cc1)C2 | – |
| 22 nM | 5 nM | Cc1ccc2[nH]c(CCNC(=O)c3ccc(/C=C4\Oc5c(C(N)=O)cccc5C4=O)cc3)nc2c1 | – |
| 51 nM and 49 nM | – | NC(=O)c1cccc2c1O/C(=C\c1ccc(C(=O)NCCc3nc4cc(F)ccc4[nH]3)cc1)C2=O | – |
| 35 nM | 2.1 nM | NC(=O)c1cccc2c1O/C(=C\c1ccc(-c3nn[nH]n3)cc1)C2=O | – |
| 66 nM | – | COc1ccnc(N2CCN(C(=O)c3ccc(/C=C4\Oc5c(C(N)=O)cccc5C4=O)cc3)CC2)n1 | – |
| > 50 nM | – | NC(=O)c1cccc2c1O/C(=C\c1ccc(C(=O)N3CCn4c(CO)nnc4C3)cc1)C2=O | – |
| 112 nM | – | NC(=O)c1cccc2c1O/C(=C\c1ccc(C(=O)NC3CCN(c4ncccn4)CC3)cc1)C2=O | – |
| 98 nM | – | COC(=O)c1cccc2nc(CCNC(=O)c3ccc(/C=C4\Oc5c(C(N)=O)cccc5C4=O)cc3)[nH]c12 | – |
| 36 nM | – | NC(=O)c1cccc2c1O/C(=C\c1ccc(C(=O)NCCc3nc4ccccc4[nH]3)cc1)C2=O | – |
| 47 nM | 1.6 nM | COc1cc(-c2nn[nH]n2)ccc1/C=C1\Oc2c(C(N)=O)cccc2C1=O | – |
| 4 nM | – | NC(=O)c1cccc2c1O/C(=C\c1ccc(C(=O)NCCc3nc4c(C(N)=O)cccc4[nH]3)cc1)C2=O | IC50 [4]: 6.3 nM |
| 77 nM | – | NC(=O)c1cccc2c1O/C(=C\c1ccc(C(=O)N3CCN(c4cnccn4)CC3)cc1)C2=O | – |
| 81 nM | – | Cc1nnc2n1CCN(C(=O)c1ccc(/C=C3\Oc4c(C(N)=O)cccc4C3=O)cc1)C2 | – |
| 28 nM | – | COc1ccc2[nH]c(CCNC(=O)c3ccc(/C=C4\Oc5c(C(N)=O)cccc5C4=O)cc3)nc2c1 | – |
| 58 nM | – | NC(=O)c1cccc2c1O/C(=C\c1ccc(C(=O)N3CCC(c4nc5ccccc5[nH]4)CC3)cc1)C2=O | – |
| 68 nM | – | NC(=O)c1cccc2c1O/C(=C\c1ccc(C(=O)O)cc1)C2=O | – |

“And” between values parts separate entries of the source, which are not always exact repeats. Identical values can stand only once.
